## Measured affinities in a library of Ab-14 light chain variants

Source: Li et al. 2023 (doi:10.1038/s41467-023-39022-2), MIT Lincoln Laboratory and A-Alpha Bio; data file from the FLAb repository.

Binding partner: SARS-CoV-2 spike HR2 peptide, sequence PDVDLGDISGINAS.

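Phage display of a naive human antibody library on the peptide gave the parent. Designed CDR sequences, proposed from the first random library and measured here. Their group label is 14L_En_HC (En: ensemble of fine-tuned language models; HC: hill climbing; a sequence that several methods proposed may carry one label only). Affinity was read by AlphaSeq, a pooled yeast mating assay with surface-displayed partners. Binding brings cells together so that they mate, and sequencing counts the barcode pairs among the diploids. Scores were corrected for input abundance and mapped to Kd with protein pairs of known affinity run in the same pool. There are six technical replicates.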

Parent: Ab-14, a human scFv built as VH, three GGGGS repeats, VL. Only the CDRs of the light chain vary.
VH: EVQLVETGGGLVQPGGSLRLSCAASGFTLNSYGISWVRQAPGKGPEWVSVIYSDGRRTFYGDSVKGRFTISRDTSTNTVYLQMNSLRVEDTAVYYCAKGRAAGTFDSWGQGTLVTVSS
VL: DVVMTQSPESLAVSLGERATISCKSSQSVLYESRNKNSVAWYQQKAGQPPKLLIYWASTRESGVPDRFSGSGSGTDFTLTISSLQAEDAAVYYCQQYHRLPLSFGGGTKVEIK

The parent's light chain CDRs are KSSQSVLYESRNKNSVA, WASTRES, QQYHRLPLS; each variant's own CDRs replace them letter for letter. Values are log10 of the apparent Kd in nM; lower means stronger binding. Where no diploid with the target was found in that replicate, the entry reads "n.d.": below detection, most likely a poor binder, though not proof of it. Values of this round are not directly comparable with the first-round values of the same sequences. The authors averaged sequences with at least three values out of six and counted those with two or fewer as poor binders. Empty control strains, which show no peptide, gave a signal in 4% of pairings with all light chain designs; the median was 2.64 and 95% of these signals were weaker than 1.59. No background was subtracted. For each scFv, signals with the empty controls are counted beside the result, with their mean in brackets.

| CDR-L1 | CDR-L2 | CDR-L3 | log10 Kd (nM) by replicate | empty controls |
|---|---|---|---|---|
| TISQMFLGESRNRNSVA | QASTRCS | QSYDRLPLS | 1.25 0.70 0.83 1.16 1.02 0.86 | 0 of 18 |
| KVSDLMAFLSRNRNSVA | DNSTRGS | QQYHRLPLS | 1.47 1.38 1.44 0.87 1.47 2.03 | 1 of 18 (2.76) |
| MIAQGLRGVGRNKNSVA | NAQTREN | QHYHRLPLS | 1.72 2.75 1.61 1.82 1.71 2.03 | 2 of 18 (2.99) |
| KINGLMNIEQMNSKSVA | HSSTREN | QQYHRLPLS | 0.43 0.03 0.53 0.24 0.35 0.42 | 1 of 18 (1.99) |
| KLSMSYREESVNKNSIA | ELVTRMS | QQYHRLPLS | 0.97 0.99 0.93 0.90 0.89 1.19 | 1 of 18 (2.16) |
| KISQAANYLSRVMNSVA | DNSTRGS | QQYFRLPLS | 0.83 0.28 0.30 0.63 0.51 0.72 | 0 of 18 |
| SLAESVHMESRNKNNVA | DNSTRES | QHYHRLPLS | n.d. n.d. n.d. n.d. n.d. n.d. | 1 of 18 (2.25) |
| KLYQSMNFLTRVMNSIA | DASTIPD | QQYHRLPLS | 2.08 1.67 1.26 2.28 2.98 2.13 | 1 of 18 (1.23) |
| KLSQFYRMESRNKNSVA | DNSTRED | QDYDRLPLS | n.d. 1.74 n.d. n.d. 2.36 3.49 | 2 of 18 (2.39) |
| IISQSVMFEQTLINSVA | NAQTREE | QQYHRLPLS | 0.58 1.11 0.54 0.48 1.24 1.28 | 0 of 18 |
| MISDLMLYGSRNKNPIA | NASMREY | QQYHRLPLE | 1.14 1.21 1.55 1.24 1.97 1.26 | 0 of 18 |
| KLIQSVAMSSRQKDSIA | DNSTRES | QQYHRLPLS | 1.12 0.78 0.85 1.29 1.17 0.75 | 0 of 18 |
| KLYESIHVESKQKNNVA | DNSTRES | QDYHRLPLS | n.d. 2.22 2.84 n.d. 2.67 2.82 | 1 of 18 (3.14) |
| KLYMSTAMTSRMKNNVA | DLNERER | QQYFRLPLS | 1.60 0.48 0.79 0.62 0.85 0.86 | 0 of 18 |
| TIGPMLMTESRNKNNVA | GMQTRES | QQYHRLPLS | -0.29 -0.17 -0.42 -0.41 -0.36 -0.33 | 3 of 18 (3.62) |
| KLSMFHNLESINKSNVA | EMVTREN | QQYDRLPLS | 2.17 n.d. 1.76 2.12 2.81 2.25 | 0 of 18 |
| MFPQEVMYEQHFKNNVA | QTSTREP | QQYDHLPLS | 0.26 0.17 0.11 0.07 0.25 0.47 | 3 of 18 (2.84) |
| SFSQSVLYESVMKNNVA | QTSTREE | QQYDHLPLS | 0.02 0.00 -0.12 0.16 0.31 0.80 | 1 of 18 (2.35) |
| MFSQLMEYGSRYVNSVA | QASTRED | QQYHWLPLS | 2.05 1.82 2.68 n.d. 2.67 2.23 | 0 of 18 |
| MISDLTMYGSRNKNSVA | DLSTRGR | QQYHRLPLS | 0.84 0.94 0.58 0.51 0.51 0.60 | 1 of 18 (3.34) |
| KLSEIAHFESRKKNSVA | ENSTREN | QQYDHLPLS | n.d. 1.80 1.29 1.76 1.20 1.45 | 0 of 18 |
| KISQNMGETQRNKNSVA | EVSTVPW | QQYWRLPLS | 1.95 1.00 1.09 1.32 1.81 2.05 | 0 of 18 |
| QLYAVNDLTTKNSNNVA | EQTTREN | QQYHRLPLS | 0.33 0.90 -0.19 0.01 -0.12 0.47 | 0 of 18 |
| MLSDLVKMGSRNTNSVA | DNSTRGP | QQYDRLPLS | n.d. n.d. n.d. n.d. n.d. n.d. | 0 of 18 |
| KIMQQLNYEQFNVSNVA | GQETRER | QSYHRLPLS | 2.32 1.69 1.82 1.75 1.78 2.37 | 2 of 18 (2.75) |
| MISQSFLIGMKAKNSVA | QTSTREQ | QQYDRLPLS | 1.11 0.91 0.76 0.76 0.94 1.24 | 0 of 18 |
| IISDVDAYESRNKNSIA | DQSTRGS | QQYDRLPLS | 0.72 0.76 0.69 0.44 0.74 0.90 | 6 of 18 (2.85) |
| ILSQMLLTAGNKHSSVA | QANNREE | QQYHRLPLS | 1.49 2.85 1.62 1.67 1.50 1.72 | 1 of 18 (1.88) |
| TISQMLLMQTSHKNSVA | GEETRYS | QQYARLPLS | 0.17 0.08 -0.03 0.09 -0.15 0.04 | 1 of 18 (3.03) |
| KIAATVLYESGNANSVA | QNSTRES | QQYHRLPLS | n.d. n.d. n.d. n.d. n.d. n.d. | 0 of 18 |
| KISMLTRFQQNAKNNIA | EMNRREQ | QQYHRLPLS | 0.47 0.39 0.40 0.24 0.09 0.80 | 0 of 18 |
| ALGDVTRMESNKKNSIA | DMNTRES | QQYHRLPLS | 0.62 0.38 0.22 0.30 0.54 0.31 | 1 of 18 (2.51) |
| ILSQSVLMGMHTKNSVA | QATMRFN | QQYHRLPLI | 2.03 1.87 1.60 2.61 1.69 1.70 | 0 of 18 |
| MMTQLTYMGSRARNAVA | QAETRVN | QQYHHLPLF | 0.69 0.66 0.91 0.91 0.88 0.70 | 1 of 18 (1.84) |
| KLSMSYRYESENKNSIA | ELVTRVS | QQYHRLPLS | 1.07 0.84 0.89 0.98 0.81 1.24 | 2 of 18 (3.15) |
| KISQMVNFESTHVNAVA | QMSTREE | QQYHRLPLS | 0.21 0.19 0.97 0.35 0.34 0.01 | 0 of 18 |
| IISGSMMMESRHKNSVA | NAETREY | QHYDRLPLS | 1.45 1.33 1.48 1.72 1.45 1.69 | 0 of 18 |
| KIGHGLTTESRNRNSVA | QTETRVP | QHYHRLPLS | 1.58 2.38 1.75 n.d. 2.17 2.07 | 0 of 18 |
| KLLQMVNYGSRALNSVA | QMETRED | QQYHRLPLS | 1.77 n.d. n.d. n.d. 3.55 n.d. | 0 of 18 |
| MIGDLTMYGSRNVNSVA | DLSTRGS | QQYDRLPLS | 0.26 0.62 0.75 0.51 0.33 1.09 | 0 of 18 |
| KISMSVDYMSATHSSVA | QTSTREE | QQYHRLPLS | 1.07 0.98 1.48 1.01 0.86 1.01 | 0 of 18 |
| MISDLTMYGSRNVNSVA | DLSTRGS | QQYDRLPLS | 2.96 1.96 1.29 1.89 2.15 2.41 | 1 of 18 (3.36) |
| ALSQSMDMTSRNVNSVA | DLTTRGN | QQYHRLPLS | 0.51 0.57 0.23 0.14 0.16 0.62 | 1 of 18 (3.51) |
| KISYMGEVFSTNHSSIA | QASTREQ | QQYHRLPLS | 0.97 1.29 0.88 0.83 1.19 0.87 | 4 of 18 (3.50) |
| KIGHGLTTEQRNKNSVA | QTETRVS | QHYHRLPLS | 1.10 0.62 0.87 0.99 0.09 0.81 | 1 of 18 (2.05) |
| NFSQMVLTGLTLKNSVA | HASTREE | QQYHRLPLI | 1.25 0.88 0.84 0.74 0.93 0.88 | 0 of 18 |
| IISQMFLGESRNRNSVA | QASTRES | QSYDRLPLS | n.d. 4.79 n.d. 3.33 1.99 2.34 | 1 of 18 (2.46) |
| KFGQMVLMGSYVRNSVA | QSSTREN | QQYDRLPLS | 1.96 2.11 1.99 2.79 2.84 2.56 | 0 of 18 |

The first 7 entries again:

| CDR-L1 | CDR-L2 | CDR-L3 | log10 Kd (nM) by replicate | empty controls |
|---|---|---|---|---|
| TISQMFLGESRNRNSVA | QASTRCS | QSYDRLPLS | 1.25 0.70 0.83 1.16 1.02 0.86 | 0 of 18 |
| KVSDLMAFLSRNRNSVA | DNSTRGS | QQYHRLPLS | 1.47 1.38 1.44 0.87 1.47 2.03 | 1 of 18 (2.76) |
| MIAQGLRGVGRNKNSVA | NAQTREN | QHYHRLPLS | 1.72 2.75 1.61 1.82 1.71 2.03 | 2 of 18 (2.99) |
| KINGLMNIEQMNSKSVA | HSSTREN | QQYHRLPLS | 0.43 0.03 0.53 0.24 0.35 0.42 | 1 of 18 (1.99) |
| KLSMSYREESVNKNSIA | ELVTRMS | QQYHRLPLS | 0.97 0.99 0.93 0.90 0.89 1.19 | 1 of 18 (2.16) |
| KISQAANYLSRVMNSVA | DNSTRGS | QQYFRLPLS | 0.83 0.28 0.30 0.63 0.51 0.72 | 0 of 18 |
| SLAESVHMESRNKNNVA | DNSTRES | QHYHRLPLS | n.d. n.d. n.d. n.d. n.d. n.d. | 1 of 18 (2.25) |